Measurements taken from ChEMBL document CHEMBL5325492, “PROTACs Targeting MLKL Protect Cells from Necroptosis” (J Med Chem, 2023).

System: HT-29
Assay: Protection against TSZ-induced necroptosis in human HT-29 cells assessed as cell viability incubated for 24 hrs by CellTiter Glo assay
Assay type: functional, cell-based
Conditions: dose 0.1-10 µM

SMILES: COc1ccc(C(=O)N2CCC3(CCN(C(=O)CCCCCCCOc4cccc(Nc5[nH]nc(-c6ccc(NS(=O)(=O)C(F)F)cc6)c5C(N)=O)c4)CC3)CC2)cc1N1CCC(=O)NC1=O
- Activity: Dose-Dependent Effect
